CycPeptMPDB entries from one study

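The data file gives no further conditions (lipid, pH, time, direction or concentration), and values from different papers need not be comparable. Other peptides of the study may be missing here. Peptides that the database sets to -10, its floor, are left out.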

PAMPA is the parallel artificial membrane permeability assay, which has no cells and reads passive diffusion.
Permeability is in 10^-6 cm/s, converted from the database's log10 values; higher is more permeable.
Entries marked < or ≤ lay at or below the stated limit.

* CC[C@H](C)[C@@H]1NC(=O)CCCNC(=O)[C@H](CC(C)C)N(C)C(=O)[C@H](COC(C)=O)NC(=O)[C@H](CC(C)C)N(C)C1=O: PAMPA 1.9 × 10^-6 cm/s
* CC[C@H](C)[C@@H]1NC(=O)CCCNC(=O)[C@H](CC(C)C)N(C)C(=O)[C@H](CC(C)C)N(C)C(=O)[C@H](CC(C)C)NC1=O: PAMPA 4.9 × 10^-6 cm/s
* CC[C@H](C)[C@@H]1NC(=O)CCCNC(=O)[C@H](CC(C)C)NC(=O)[C@H](CC(C)C)N(C)C(=O)[C@H](CC(C)C)N(C)C1=O: PAMPA 3.6 × 10^-6 cm/s
* CCOC(=O)/N=C(/NCCC[C@@H]1NC(=O)[C@H](CC(C)C)N(C)C(=O)[C@H]([C@@H](C)CC)NC(=O)CCCNC(=O)[C@H](CC(C)C)N(C)C1=O)NC(=O)OCC: PAMPA 1.3 × 10^-6 cm/s
* CC[C@H](C)[C@@H]1NC(=O)CCCNC(=O)[C@H](CC(C)C)N(C)C(=O)[C@H](CCCNC(=N)N)NC(=O)[C@H](CC(C)C)N(C)C1=O: PAMPA < 0.1 × 10^-6 cm/s
* CC[C@H](C)[C@@H]1NC(=O)CCCNC(=O)[C@H](CC(C)C)N(C)C(=O)[C@H](CCC(N)=O)NC(=O)[C@H](CC(C)C)N(C)C1=O: PAMPA < 0.1 × 10^-6 cm/s
* CC[C@H](C)[C@@H]1NC(=O)CCCNC(=O)[C@H](CC(C)C)N(C)C(=O)[C@H](Cc2c[nH]cn2)NC(=O)[C@H](CC(C)C)N(C)C1=O: PAMPA < 0.1 × 10^-6 cm/s
* CC[C@H](C)[C@@H]1NC(=O)CCCNC(=O)[C@H](CC(C)C)N(C)C(=O)[C@H](CC(C)C)NC(=O)[C@H](CC(C)C)NC1=O: PAMPA 1 × 10^-6 cm/s
* CC[C@H](C)[C@@H]1NC(=O)CCCNC(=O)[C@H](CC(C)C)N(C)C(=O)[C@H](CCCCNC(C)=O)NC(=O)[C@H](CC(C)C)N(C)C1=O: PAMPA 0.71 × 10^-6 cm/s
* CC[C@H](C)[C@@H]1NC(=O)CCCNC(=O)[C@H](CC(C)C)N(C)C(=O)[C@H](CO)NC(=O)[C@H](CC(C)C)N(C)C1=O: PAMPA < 0.1 × 10^-6 cm/s
* CC[C@H](C)[C@@H]1NC(=O)CCCNC(=O)[C@H](CC(C)C)N(C)C(=O)[C@H](CCCCNC(=O)C(F)(F)F)NC(=O)[C@H](CC(C)C)N(C)C1=O: PAMPA 4.8 × 10^-6 cm/s

Data: CycPeptMPDB; original report Barlow et al. 2020, doi:10.1021/acschembio.0c00218.